According to publication PMC11025159 (Journal of Translational Medicine, 2024):
Counter-ions that a name gives are not always drawn.

Tested on: phosphorylation of JAK1, JAK3 and STAT3
Experiment: Western blotting of JAK/STAT phosphorylation in A549 cells
Format: cell-based, human
Procedure: For western blotting, A549 cells were seeded at a density of 0.2 × 10^6 cells/well in 6-well plates. At 24 h, cells were treated with various concentrations of small molecules and grown with 10% FBS for 48 h. Whole-cell lysates were prepared in 1× RIPA buffer (Sigma) with added sodium orthovanadate (1 mM), protease cocktail (Roche), NaF (1 mM), PMSF (1 mM) and EDTA (0.5 M). Protein estimation was done using Bradford reagent (Bio-Rad). The samples were boiled with sample buffer containing 1% β-mercaptoethanol, 6% glycerol, 2% SDS, 22 mM Tris–HCl pH 6.8, and bromophenol blue. Whole-cell lysates corresponding to 70-100 µg of protein were loaded. The samples were analysed by SDS-PAGE with a 10% separating gel. After running the gel, the proteins were transferred to PVDF membrane (Millipore) and then blocked for 1 h in a solution of 5% BSA (Sigma), 0.1% Tween 20 (Hi-Media), 150 mM NaCl and 20 mM Tris–HCl pH-7.4. The membrane was probed with specific antibodies for pJAK-1 (1:1000), p-STAT-3 (CST) (1:1000), total JAK-1 (1:1000), pJAK-3 Z(1:1000), T-JAK-3 (1:1000), total STAT-3(1:1000), GAPDH (1:500), and visualized using ECL (Millipore). GAPDH was used as a loading control. The results shown are representative of western blot data analysis obtained from at least three independent experiments. To induce STAT3 pathway stimulation with IL-6, A549 cells were initially seeded in 6 well-culture plates at a concentration of 1.25 × 10^5 cells/mL and incubated for 24 h. Subsequently, the cells were subjected to serum-free medium for a minimum of 12 h to induce starvation. Following this starvation period, the A549 cells were pre-treated with varying concentrations of MJ04 for a duration of 4 h. Following the pre-treatment, the cells were stimulated with 10 ng/mL of IL-6 for 30 min [20–22].

C[C@@H]1CCN(C(=O)CC#N)C[C@@H]1N(C)c1ncnc2[nH]ccc12 [Tofacitinib, tofacitinib citrate, reference compound]
significant decrease: phosphorylation of STAT3 (Tyr705) (dose-dependent) | phosphorylation of JAK1 (increasing concentrations) | phosphorylation of JAK3 (increasing concentrations)
